Earlier results on one molecule are cited in patent US5424185A, “Human high-affinity neurotransmitter uptake system” (Baylor College of Medicine, priority 1990, dated 1995).

This data set relates to Human Platelets. The conditions noted are these: literature values; read-out: Representative IC50, Human Platelets; cited from earlier work.

Each structure is given as a SMILES string.

As for `CNCCC=C1c2ccccc2CCc2ccccc21` [Nortriptyline, nortriptyline], the concentration for half-maximal inhibition (IC50) (commonly the concentration that gives 50% inhibition) is 2000 nM.
